Results from article PMC9919490, “Synthesis and Biological Evaluation of Novel Dispiro-Indolinones with Anticancer Activity” (Molecules, 2023).

Columns and labels:
Assay type in all cases: cell-based
Conditions in all cases: 48 h
HCT^−/− cells = assay: MTT cytotoxicity assay, HCT^−/− (p53 neg)
Method: (§1) The synthesized compounds were tested for their ability to block the proliferation of the selected model cell lines: LNCaP (p53+), PC3 (p53-), HCT^wt (p53+), and HCT^−/− (p53-) cells. The assay was carried out using the standard MTT (3-(4,5-dimethylthiazol-2-yl)2,5-diphenyl tetrazolium bromide) assay based on the modified approach reported by Ferrari and colleagues. […] Differences in IC50 values against these cell lines were used to assess the selectivity of the compounds.
(§2) Model cell lines were purchased from the in stock collection of the N.N. Blokhin Russian Cancer Research Center (RAMS). Cells were accurately maintained in the recommended media, supplemented with 10% heat-inactivated FBS (Invitrogen) and 2 mmol/L L-glutamine (Invitrogen).
(§3) First, 4000 cells per well were plated out in 140 µL of DMEM (with 10% FBS) in 96-well plates and incubated in 5% CO2 for 24 h at 37 °C without treatment. […] The cells were treated for 48 h with […] (eight dilutions) concentrations of the substances (each in triplicate) or doxorubicin (0.3 nM–600 nM, eight dilutions) as a control substance. […] Cell survival rates were determined by the comparison of optical density with the corresponding untreated control cell culture. Dose-dependent curves and the corresponding IC50 values were calculated using “GraphPad Prism 6” software (GraphPad Software, Inc., San Diego, CA, USA).

HCT^wt cells = assay: MTT cytotoxicity assay, HCT^wt (p53 pos)
Method: as §1, §2, §3

LNCaP cells = assay: MTT cytotoxicity assay, LNCaP (p53 pos)
Method: as §1, §2, §3

PC3 cells = assay: MTT cytotoxicity assay, PC3 (p53 neg)
Method: as §1, §2, §3

Measured: IC50

1-phenyl-4'-phenyl-1'-methyl-5'''-nitro-2-thiooxodispiro[imidazolidine-4,3’-pyrrolidine-2',3"-indoline]-2",5-dione [Compound 6]
> 100 µM: all assays above

1-phenyl-4'-phenyl-1'-methyl-7'''-carboxy-2-thiooxodispiro[imidazolidine-4,3’-pyrrolidine-2',3”-indoline]-2”,5-dione [Compound 7]
> 100 µM: all assays above
